# Measured values published in ChEMBL document CHEMBL1142345, “Synthesis and biological evaluation of alpha- and beta-6-amido derivatives of 17-cyclopropylmethyl-3, 14beta-dihydroxy-4, 5alpha-epoxymorphinan: potential alcohol-cessation agents” (J Med Chem, 2008).
# Protein sequences, listed by entry. Tags and fused reporters are not part of them. Lines headed by an entry give the natural chain unless they say otherwise; changes in a name come on top.
# UniProt P41143, whole entry: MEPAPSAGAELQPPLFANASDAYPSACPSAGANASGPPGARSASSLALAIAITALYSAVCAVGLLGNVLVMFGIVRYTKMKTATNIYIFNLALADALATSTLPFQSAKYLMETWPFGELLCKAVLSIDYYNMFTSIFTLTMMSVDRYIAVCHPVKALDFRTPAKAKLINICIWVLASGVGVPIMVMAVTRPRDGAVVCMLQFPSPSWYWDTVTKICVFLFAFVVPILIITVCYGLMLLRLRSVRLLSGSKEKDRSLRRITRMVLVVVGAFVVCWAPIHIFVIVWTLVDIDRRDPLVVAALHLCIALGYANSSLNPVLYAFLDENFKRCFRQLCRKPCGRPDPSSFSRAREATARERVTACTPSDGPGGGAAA
# UniProt P41145: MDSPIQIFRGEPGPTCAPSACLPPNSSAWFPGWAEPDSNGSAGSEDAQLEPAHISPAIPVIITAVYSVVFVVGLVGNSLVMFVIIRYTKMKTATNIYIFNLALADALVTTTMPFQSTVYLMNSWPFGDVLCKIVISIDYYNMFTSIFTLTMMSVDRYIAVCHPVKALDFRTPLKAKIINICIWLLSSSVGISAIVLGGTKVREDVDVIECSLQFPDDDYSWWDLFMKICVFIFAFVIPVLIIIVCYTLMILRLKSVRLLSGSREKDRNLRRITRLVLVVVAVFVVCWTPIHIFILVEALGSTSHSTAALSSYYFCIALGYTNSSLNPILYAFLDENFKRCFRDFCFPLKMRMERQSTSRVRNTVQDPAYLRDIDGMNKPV
# Key:
# [1] = biological target: T1, Delta-type opioid receptor (Homo sapiens, UniProt P41143); test: biochemical
# [2] = biological target: Kappa-type opioid receptor (Homo sapiens, UniProt P41145); test: Displacement of [3H]U69593 from human kappa opioid receptor expressed in CHO cells; type: cell-based
# [3] = biological target: T1, Delta-type opioid receptor; test: Activity at human delta opioid receptor by [35S]GTPgammaS binding assay; type: functional; conditions: read-out: pA2 (converted)
structure (smiles),measurement,setting,value
O=C(N[C@@H]1CC[C@@]2(O)[C@H]3Cc4ccc(O)c5c4[C@@]2(CCN3CC2CC2)[C@H]1O5)c1ccc(Cl)cc1,Ki,[1],1.4 nM
C=C1CC[C@@]2(O)[C@H]3Cc4ccc(O)c5c4[C@@]2(CCN3CC2CC2)[C@H]1O5,Ki,[2],1.03 nM
same,Kb,[3],0.912 nM
